Data as given in article PMC4935942, “Efficient Inhibition of Hepatitis B Virus Infection by a preS1-binding Peptide” (Scientific Reports, 2016).

Test system: interaction between preS1/2-48^myr-FITC and 4B10
Test: Peptide competition assay: interaction between preS1/2-48^myr-FITC and immobilized 4B10
Details: read-out: IC50, 50% inhibition of the interaction between preS1/2-48^myr-FITC and 4B10; immobilized N-biotinylated 4B10; 10 μM preS1/2-48^myr-FITC; competitor at 1.25-, 2.5-, or 5-fold molar ratio; triplicate, repeated at least three times; calculated from data of Fig. 2B

Row | Compound | IC50 [µM]
1 | CCCCCCCCCCCCCC(=O)NCC(=O)N[C@H](C(=O)N[C@@H](CC(N)=O)C(=O)N[C@@H](CC(C)C)C(=O)N[C@@H](CO)C(=O)N[C@H](C(=O)N[C@@H](Cc1ccccc1)C(=O)N[C@@H](Cc1ccccc1)C(=O)N1CCC[C@H]1C(=O)N[C@@H](CC(=O)O)C(=O)N[C@@H](Cc1c[nH]cn1)C(=O)N[C@@H](CCC(N)=O)C(=O)N[C@@H](CC(C)C)C(=O)N[C@@H](CC(=O)O)C(=O)N1CCC[C@H]1C(=O)N[C@@H](C)C(=O)N[C@@H](Cc1ccccc1)C(=O)NCC(=O)N[C@@H](C)C(=O)N[C@@H](CC(N)=O)C(=O)N[C@@H](CO)C(=O)N[C@@H](CC(N)=O)C(=O)N[C@@H](CC(N)=O)C(=O)N1CCC[C@H]1C(=O)N[C@@H](CC(=O)O)C(=O)N[C@@H](Cc1c[nH]c2ccccc12)C(=O)N[C@@H](CC(=O)O)C(=O)N[C@@H](Cc1ccccc1)C(=O)N[C@@H](CC(N)=O)C(=O)N1CCC[C@H]1C(=O)N[C@@H](CC(N)=O)C(=O)N[C@@H](CCCCN)C(=O)N[C@@H](CC(=O)O)C(=O)N[C@@H](Cc1c[nH]cn1)C(=O)N[C@@H](Cc1c[nH]c2ccccc12)C(=O)N1CCC[C@H]1C(=O)N[C@@H](CCC(=O)O)C(=O)N[C@@H](C)C(=O)N[C@@H](CC(N)=O)C(=O)N[C@@H](CCCCN)C(=O)N[C@H](C(=O)NCC(N)=O)C(C)C)C(C)C)[C@@H](C)O [Δ8-12] | 15.6
2 | CCCCCCCCCCCCCC(=O)NCC(=O)N[C@H](C(=O)N[C@@H](CC(N)=O)C(=O)N[C@@H](CC(C)C)C(=O)N[C@@H](CO)C(=O)N[C@H](C(=O)N1CCC[C@H]1C(=O)N[C@@H](CC(N)=O)C(=O)N1CCC[C@H]1C(=O)N[C@@H](CC(C)C)C(=O)NCC(=O)N[C@@H](CCC(N)=O)C(=O)N[C@@H](CC(C)C)C(=O)N[C@@H](CC(=O)O)C(=O)N1CCC[C@H]1C(=O)N[C@@H](C)C(=O)N[C@@H](Cc1ccccc1)C(=O)NCC(=O)N[C@@H](C)C(=O)N[C@@H](CC(N)=O)C(=O)N[C@@H](CO)C(=O)N[C@@H](CC(N)=O)C(=O)N[C@@H](CC(N)=O)C(=O)N1CCC[C@H]1C(=O)N[C@@H](CC(=O)O)C(=O)N[C@@H](Cc1c[nH]c2ccccc12)C(=O)N[C@@H](CC(=O)O)C(=O)N[C@@H](Cc1ccccc1)C(=O)N[C@@H](CC(N)=O)C(=O)N1CCC[C@H]1C(=O)N[C@@H](CC(N)=O)C(=O)N[C@@H](CCCCN)C(=O)N[C@@H](CC(=O)O)C(=O)N[C@@H](Cc1c[nH]cn1)C(=O)N[C@@H](Cc1c[nH]c2ccccc12)C(=O)N1CCC[C@H]1C(=O)N[C@@H](CCC(=O)O)C(=O)N[C@@H](C)C(=O)N[C@@H](CC(N)=O)C(=O)N[C@@H](CCCCN)C(=O)N[C@H](C(=O)NCC(N)=O)C(C)C)C(C)C)[C@@H](C)O [Δ13-17] | 32.2
3 | CCCCCCCCCCCCCC(=O)NCC(=O)N[C@H](C(=O)N[C@@H](CC(N)=O)C(=O)N[C@@H](CC(C)C)C(=O)N[C@@H](CO)C(=O)N[C@H](C(=O)N1CCC[C@H]1C(=O)N[C@@H](CC(N)=O)C(=O)N1CCC[C@H]1C(=O)N[C@@H](CC(C)C)C(=O)NCC(=O)N[C@@H](Cc1ccccc1)C(=O)N[C@@H](Cc1ccccc1)C(=O)N1CCC[C@H]1C(=O)N[C@@H](CC(=O)O)C(=O)N[C@@H](Cc1c[nH]cn1)C(=O)N[C@@H](Cc1ccccc1)C(=O)NCC(=O)N[C@@H](C)C(=O)N[C@@H](CC(N)=O)C(=O)N[C@@H](CO)C(=O)N[C@@H](CC(N)=O)C(=O)N[C@@H](CC(N)=O)C(=O)N1CCC[C@H]1C(=O)N[C@@H](CC(=O)O)C(=O)N[C@@H](Cc1c[nH]c2ccccc12)C(=O)N[C@@H](CC(=O)O)C(=O)N[C@@H](Cc1ccccc1)C(=O)N[C@@H](CC(N)=O)C(=O)N1CCC[C@H]1C(=O)N[C@@H](CC(N)=O)C(=O)N[C@@H](CCCCN)C(=O)N[C@@H](CC(=O)O)C(=O)N[C@@H](Cc1c[nH]cn1)C(=O)N[C@@H](Cc1c[nH]c2ccccc12)C(=O)N1CCC[C@H]1C(=O)N[C@@H](CCC(=O)O)C(=O)N[C@@H](C)C(=O)N[C@@H](CC(N)=O)C(=O)N[C@@H](CCCCN)C(=O)N[C@H](C(=O)NCC(N)=O)C(C)C)C(C)C)[C@@H](C)O [Δ18-22] | 27.6
4 | CCCCCCCCCCCCCC(=O)NCC(=O)N[C@H](C(=O)N[C@@H](CC(N)=O)C(=O)N[C@@H](CC(C)C)C(=O)N[C@@H](CO)C(=O)N[C@H](C(=O)N1CCC[C@H]1C(=O)N[C@@H](CC(N)=O)C(=O)N1CCC[C@H]1C(=O)N[C@@H](CC(C)C)C(=O)NCC(=O)N[C@@H](Cc1ccccc1)C(=O)N[C@@H](Cc1ccccc1)C(=O)N1CCC[C@H]1C(=O)N[C@@H](CC(=O)O)C(=O)N[C@@H](Cc1c[nH]cn1)C(=O)N[C@@H](CCC(N)=O)C(=O)N[C@@H](CC(C)C)C(=O)N[C@@H](CC(=O)O)C(=O)N1CCC[C@H]1C(=O)N[C@@H](C)C(=O)N[C@@H](CC(N)=O)C(=O)N[C@@H](CC(N)=O)C(=O)N1CCC[C@H]1C(=O)N[C@@H](CC(=O)O)C(=O)N[C@@H](Cc1c[nH]c2ccccc12)C(=O)N[C@@H](CC(=O)O)C(=O)N[C@@H](Cc1ccccc1)C(=O)N[C@@H](CC(N)=O)C(=O)N1CCC[C@H]1C(=O)N[C@@H](CC(N)=O)C(=O)N[C@@H](CCCCN)C(=O)N[C@@H](CC(=O)O)C(=O)N[C@@H](Cc1c[nH]cn1)C(=O)N[C@@H](Cc1c[nH]c2ccccc12)C(=O)N1CCC[C@H]1C(=O)N[C@@H](CCC(=O)O)C(=O)N[C@@H](C)C(=O)N[C@@H](CC(N)=O)C(=O)N[C@@H](CCCCN)C(=O)N[C@H](C(=O)NCC(N)=O)C(C)C)C(C)C)[C@@H](C)O [Δ23-27] | 28.8
